Measured values reported in publication PMC4975651 (Molecular cell, 2016).

Tested on: GST-ZMYND8-PBP
Assay: Peptide pull-down assay, GST-ZMYND8-PBP
Format: binding, human
Conditions: biotinylated peptides; H2Aac, H2Bac, H3ac and H4ac peptides tested

In the case of “H3K14ac: acetylated H3K14 histone peptide”, the “interaction with ZMYND8-PBP (pull-down)” value is reported as “specifically interacted”.
